Assay results: the RepoRT retention time repository (doi:10.1016/j.jhazmat.2019.121712)

Experiment: Thermo Scientific Acclaim RSLC 120 C18, 100 × 2.1 mm, 2.2 µm, 30 °C; A: 90% water + 10% methanol + 0.01% formic acid + 5 mM ammonium formate; B: methanol + 0.01% formic acid + 5 mM ammonium formate; gradient (min/%B) 0.1/1 3/39 14/99.9 16/99.9
Conditions: stereoisomer not certain

**Q.** Which LC retention time does the source give for `CCOP(=S)(OCC)Oc1ncn(-c2ccccc2)n1` here?
**A.** 9.9 min
